# Ab-14 heavy chain CDR variants: yeast mating affinities

Data: MIT Lincoln Laboratory AlphaSeq set, Li et al. 2023, doi:10.1038/s41467-023-39022-2, as distributed in FLAb.

Antigen: PDVDLGDISGINAS, a 14-residue peptide of the SARS-CoV-2 spike HR2 region.

Ab-14 is the parent antibody, in scFv form: VH, then a 15-residue (Gly4Ser)3 linker, then VL. The light chain is unchanged in all variants.
VH: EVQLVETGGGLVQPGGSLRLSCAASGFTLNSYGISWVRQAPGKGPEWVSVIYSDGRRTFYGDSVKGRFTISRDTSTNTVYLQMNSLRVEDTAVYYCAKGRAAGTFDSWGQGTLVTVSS
VL: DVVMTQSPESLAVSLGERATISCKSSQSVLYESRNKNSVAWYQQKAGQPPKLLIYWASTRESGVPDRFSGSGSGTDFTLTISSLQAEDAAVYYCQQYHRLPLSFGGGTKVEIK

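Designed CDR sequences, proposed from the first random library and measured here. Group labels follow the data file (Ctrl: baseline library sampled from a position-specific scoring matrix, with some repeated check sequences; En: ensemble of fine-tuned language models; GP: Gaussian process model; GPLM: also part of the Gaussian process libraries; HC: hill climbing; Gen: genetic algorithm; Gibbs: Gibbs sampling; a sequence that several methods proposed may carry one label only). The assay is AlphaSeq: two haploid yeast populations carry antibody and antigen on their surface. Mating (16 h, 30 °C) was followed by selection of diploids and sequencing of their barcodes. Each replicate has its own calibration line, from reference interactions of the BCL2 family. Each pool was mated in six replicate cultures.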

Each variant is given by its three heavy chain CDRs, as the data file delimits them; those of the parent are GFTLNSYGIS, VIYSDGRRTFYGDSVK, GRAAGTFDS. Scale: log10 of Kd in nM, estimated from mating counts; low values are strong binders. Averages over replicates are reported, and they cover detected replicates only. "no signal" marks a missing value. The strain was present, yet no cells mated with the target were sequenced in any replicate, which points to weak or no binding. Values of this round are not directly comparable with the first-round values of the same sequences.

CDR-H1 | CDR-H2 | CDR-H3 | group | mean log10 Kd (nM) | replicates with signal
GFDLDEYGIS | VIYADGMRTAYSDNVK | GNQAGTFDV | En_Gen | 0.17 | 6 of 6
GFNLNSYGIS | VIYSDGRRTFYGDSVK | GREAGTFDQ | Ctrl | -0.05 | 6 of 6
GMSIGEYGIS | VIYADGERTNYASNFK | GVEAGTFDV | En_Gibbs | no signal | 0 of 6
GFDLNEYGIS | VIYADGRRTFYSDSVK | GQTGGTFDM | En_HC | 0.31 | 6 of 6
GFDLGEQGIS | VIYADGLRTAYATSFK | GEQGGFYGD | En_Gibbs | no signal | 0 of 6
GFKLNSYGIS | VIYSDGRRTFYHDSVK | GQTAGTFDS | GP_HC | 0.58 | 6 of 6
GFDLDEQGIS | VIYADGVRCSYADKVK | GAGSGVIDM | En_Gibbs | no signal | 0 of 6
GFTLNSYGIS | VIYSDGRRTFYSDSVK | GKEAGTFDT | GPLM_Gibbs | -0.34 | 6 of 6
GFSLNSYGIS | VIYSDGRRTFYSDQVK | GRLAGTFDS | GP_Gibbs | -0.12 | 6 of 6
GFDLNEYGIS | VIYADGKRTFYSDSVK | GAVAGTFDK | En_HC | 0.08 | 6 of 6
GFDLNEYGVS | VIYADGQRTYYTESVK | GKFWDQLMA | En_Gibbs | no signal | 0 of 6
GFELESYGIS | VIYSDGRRTFYADSVK | GQAAGTFDS | GPLM_Gen | 0.25 | 6 of 6
GFDLNEYGIS | VIYADGMRTAYIDSVK | GQNAGTFDI | En_Gen | -0.83 | 6 of 6
GFDLNEYGIS | VIYADGMRTAYVDSVK | GANAGTFDV | En_Gen | -0.80 | 6 of 6
GFDLDEYGIS | VIYADGMRTAYSDSVK | GNNAGTFDV | En_Gen | 0.64 | 6 of 6
GFDLNEYGIS | VIYADGMRTSYADSVK | GEVAGTFDV | En_Gen | 0.34 | 6 of 6
GFDLNSYGIS | VIYSDGRRTFYCDSVK | GKTAGTFDS | GP_Gen | 0.70 | 6 of 6
GFDLNEYGIS | VIYADGRRSFYADSVK | GQNAGTFDS | En_HC | -0.08 | 6 of 6
GFDLNEYGIS | VIYSDGRRTFYADSVK | GRAAGTFDK | GP_Gibbs | -0.60 | 6 of 6
GFDLNEYGIS | VIYADGRRTAYADKVK | GNQAGTFDV | En_Gen | -0.31 | 6 of 6
GFTLDEYGIS | VIYADGRRTAYTDSVK | GGNAGTFDV | En_HC | -0.46 | 6 of 6
GFTLNSYGIT | VIYSDGRRTAYGDSVK | GRAAGTFDS | Ctrl | no signal | 0 of 6
GFNFDEYGIS | VIYADGLRRQYVDDVK | GSHSDVFNM | En_Gibbs | no signal | 0 of 6
GFNLDEYGIS | VIYADGQRTYYTQKVK | GGIQDGNMG | En_Gibbs | no signal | 0 of 6
GFDLNEYGIS | VIYADGLRTAYVDDVK | GNVAGTFDV | En_Gen | -0.34 | 6 of 6
GFDLNSYGIS | VIYSDGQRTFYGDSVK | GQAAGTFDS | GP_Gen | -0.04 | 6 of 6
GFDLNSYGIS | VIYSDGRRTFYGDSVK | GRAAGTFFD | Ctrl | no signal | 0 of 6
GFSLNSYGIS | VIYSDGRRTFYTDNVK | GEAAGTFDS | GPLM_Gen | 1.56 | 6 of 6
GFDLNEYGIS | VIYADGQRTAYADSVK | GNEAGTFDL | En_Gen | -0.25 | 5 of 6
GKTLDEYGIS | VIYADGMRTQYIDQVK | GDIVGWNMT | En_Gibbs | no signal | 0 of 6
GFDINEYGIS | VIYADGKKTAFANSVK | GEWAGTFDD | En_Gibbs | 1.77 | 6 of 6
GFNLNEYGIS | VIYADGQRTFYADSVK | GQIAGTFDV | En_HC | -0.76 | 6 of 6
GFDLNSYGIS | VIYSDGRRTFYTDSVK | GKAAGTFDS | GPLM_Gen | -0.08 | 6 of 6

Further variants, results first:

mean log10 Kd (nM) | replicates with signal | CDR-H1 | CDR-H2 | CDR-H3 | group
-0.58 | 6 of 6 | GFDLNEYGIS | VIYADGRRTAYADSVK | GKNAGTFDQ | En_HC
-0.65 | 6 of 6 | GFDLDEYGIS | VIYADGRRTFYADSVK | GETAGTFLS | En_HC
no signal | 0 of 6 | GFTLNSYGIS | VIYSDGRRTFYIDSVK | GRAPATFDS | Ctrl
no signal | 0 of 6 | GFDLNSYGIS | VIYSDGRRTFYADSVK | GKAAGKFDS | GP_Gibbs
0.04 | 6 of 6 | GFTLNEYGIS | VIYSDGRRAFYTDSVK | GRYAGTFDS | GP_HC
no signal | 0 of 6 | GFTLESYGIS | VIYSDGRRTFYKDSVK | GQGAGTFDS | GP_HC
-0.38 | 6 of 6 | GFDLESYGIS | VIYADGRRTFYADKVK | GENAGTFDI | En_HC
no signal | 0 of 6 | GFTLNSYGIS | VIYSDGRRTFYGWSVK | GRAAGTFDS | Ctrl
-0.97 | 6 of 6 | GFNLDEYGIS | VIYADGMRTFYTDSVK | GETAGTFIN | En_HC
0.86 | 6 of 6 | GFDLNSYGIS | VIYSDGRRTFYSDSVK | GKAAGTFDW | GP_Gibbs
no signal | 0 of 6 | GFDLDEYGIS | VIYADGMRVSYDQNVK | GRGGVSFIA | En_Gibbs
0.23 | 6 of 6 | GFDLNEYGIS | VIYADGRRTQYVDSVK | GNQAGTFDS | En_HC
no signal | 0 of 6 | GFDLNSYGIS | VIYSDGKRTFYGDSVK | GRTAGTFWS | GP_Gibbs
0.08 | 6 of 6 | GFSLNEYGIS | VIYSDGRRTFYGDSVK | GRAAGTFDN | GPLM_Gen
0.47 | 6 of 6 | GFDLNSYGIS | VIYSDGQRTFYADSVK | GRAAGTFDS | GPLM_Gen
1.25 | 6 of 6 | GFDLREYGIS | VIYADGRRVVYQDKVK | GELTGTFDQ | En_Gibbs
-0.34 | 6 of 6 | GFDLNEYGIS | VIYADGVRTAYSDSVK | GETAGTFDM | En_Gen
-0.09 | 6 of 6 | GFGLNEYGIS | VIYSDGRRTFYSDSVK | GRTAGTFDS | GPLM_HC
no signal | 0 of 6 | GEDLNSYGIS | VIYADGLRTVYSDNFK | GNGGGQFDM | En_Gibbs
2.24 | 1 of 6 | GFDLEEYGIS | VIYADGMRQMYAQNVK | GYNSSDMTV | En_Gibbs
1.09 | 6 of 6 | GFTLNSYGIS | VIYSDGRRTFYIDDVK | GQAAGTFDV | GP_Gibbs
0.74 | 6 of 6 | GFTLNDYGIS | VIYSDGRRTFYGDSVK | GRVAGTFDI | GPLM_HC
0.29 | 6 of 6 | GFGLNEYGIS | VIYSDGRRTFYIDSVK | GRNAGTFDS | GPLM_Gibbs
no signal | 0 of 6 | GFDLNSYGIS | VIYSDGRRTFYIDQVK | GQTAGTFDS | GP_Gen
-0.44 | 6 of 6 | GFDLNEYGIS | VIYADGRRTVYADSVK | GNVAGTFDI | En_Gen
no signal | 0 of 6 | GFDFNEYGIS | VIYADGKRTAYANNVK | GGKDAATDI | En_Gibbs
-0.40 | 6 of 6 | GFDLDEYGIS | VIYADGMRTYYADSVK | GEVAGTFDI | En_Gen
no signal | 0 of 6 | GNTLQSYGIS | VIYSDGRKTFYGDSVK | GRSAGTFDS | Ctrl
-0.71 | 6 of 6 | GFDLNEYGIS | VIYADGRRTFYKDSVK | GEVAGTFDS | En_HC
0.90 | 6 of 6 | GFTLNSYGIS | VIYSDGRRTFYADSVK | GRAAGTFDD | Ctrl
2.00 | 2 of 6 | GFTLDSYGIS | VIYSDGRRTFYGDSVK | GRAAGTFDW | Ctrl
-0.78 | 6 of 6 | GFDLNEYGIS | VIYADGKRTAYADSVK | GQNAGTFDT | En_Gen
0.76 | 6 of 6 | GFTLNEYGIS | VIYSDGKRTFYGDSVK | GRHAGTFDS | GP_Gen
0.57 | 6 of 6 | GFDLNSYGIS | VIYSDGRRTFYGDSVK | GMEAGTFDS | GP_Gen

Again, the first 8 entries without any signal:

CDR-H1	CDR-H2	CDR-H3	group	mean log10 Kd (nM)	replicates with signal
GMSIGEYGIS	VIYADGERTNYASNFK	GVEAGTFDV	En_Gibbs	no signal	0 of 6
GFDLGEQGIS	VIYADGLRTAYATSFK	GEQGGFYGD	En_Gibbs	no signal	0 of 6
GFDLDEQGIS	VIYADGVRCSYADKVK	GAGSGVIDM	En_Gibbs	no signal	0 of 6
GFDLNEYGVS	VIYADGQRTYYTESVK	GKFWDQLMA	En_Gibbs	no signal	0 of 6
GFTLNSYGIT	VIYSDGRRTAYGDSVK	GRAAGTFDS	Ctrl	no signal	0 of 6
GFNFDEYGIS	VIYADGLRRQYVDDVK	GSHSDVFNM	En_Gibbs	no signal	0 of 6
GFNLDEYGIS	VIYADGQRTYYTQKVK	GGIQDGNMG	En_Gibbs	no signal	0 of 6
GFDLNSYGIS	VIYSDGRRTFYGDSVK	GRAAGTFFD	Ctrl	no signal	0 of 6

The parent sequence was in this pool as ten entries: three were never detected, three once, and four in most replicates, with averages from 0.34 to 2.37. Empty control strains, which show no peptide, gave a signal in 1% of pairings with all heavy chain designs; the median was 2.08 and 95% of these signals were weaker than 0.84. No background was subtracted. The authors' rule: three or more of the six replicates give a measured affinity, fewer mean a poor binder.